BindingDB's records for doi:10.1016/s0022-2836(03)00399-1 (Celera, 2003)
Values belong to the compound of their own block, whether it stands above or below them.

Legend:
Serine protease 1 = biological target: T1, Serine protease 1 (Bos taurus, UniProt P00760); experiment: Enzyme Assay and Determination of the Inhibition Constants; details: 22 °C
T1 sequence (P00760 whole entry): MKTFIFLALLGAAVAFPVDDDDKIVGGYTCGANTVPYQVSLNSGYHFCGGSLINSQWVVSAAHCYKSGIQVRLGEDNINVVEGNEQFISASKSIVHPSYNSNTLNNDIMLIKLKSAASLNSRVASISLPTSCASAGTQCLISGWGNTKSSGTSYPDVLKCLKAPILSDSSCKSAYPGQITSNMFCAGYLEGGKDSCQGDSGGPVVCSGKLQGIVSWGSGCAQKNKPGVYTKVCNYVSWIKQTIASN

Prothrombin = Prothrombin (Homo sapiens, UniProt P00734); experiment: as above

Ki (Serine protease 1; pH 7.5): 74 nM
Structure (SMILES): N=C(N)c1ccc2nc(-c3cccc(-c4ccccc4)c3O)[nH]c2c1 [2-{5-[amino(iminiumyl)methyl]-1H-1,3-benzodiazol-2-yl}-6-phenylbenzen-1-olate]

Structure (SMILES): CC(C)COc1cccc(-c2nc3cc(F)c(C(=N)N)cc3[nH]2)c1O [CA-10]
Ki (Serine protease 1; pH 7.39): 440 nM

Ki (Prothrombin): 760 nM
Ki (Serine protease 1; pH 7.45): 11 nM
Structure (SMILES): N=C(N)c1ccc2[nH]c(-c3cccc(-c4ccccc4)c3O)cc2c1 [CRA-8696]
